Measurements reported in article PMC10459686, “Preclinical Evaluation of a New Series of Albumin-Binding ^177Lu-Labeled PSMA-Based Low-Molecular-Weight Radiotherapeutics” (Molecules, 2023).
Read-outs that look alike come from different tables or passages of the source.

System: male NSG mice bearing PSMA+ PC3 PIP and PSMA− PC3 flu xenografts
[1] = 177Lu-L1 from biodistribution data of ref 27
[2] = 192 h, unpublished data acquired during the study of ref 27

SMILES: CC(C)Cc1ccc([C@H](C)C(=O)NCCCC[C@H](NC(=O)CN2CCN(CC(=O)O)CCN(CC(=O)O)CCN(CC(=O)O)CC2)C(=O)N[C@@H](CCCCNC(=O)CCCCCCC(=O)N(CCCC[C@H](NC(=O)N[C@@H](CCC(=O)O)C(=O)O)C(=O)O)Cc2ccc(Br)cc2)C(=O)O)cc1 [Alb-L4]
- Tumor AUC, fold higher (compared to 177Lu-Alb-L2 and 177Lu-Alb-L3): ~ 4 fold
- Tumor AUC, fold higher (than 177Lu-Alb-L6 and 177Lu-L1): ~ 6 fold

SMILES: O=C(O)CCC(NC(=O)NC(CCCCN(Cc1ccc(Br)cc1)C(=O)CCCCNC(=O)CN1CCN(CC(=O)O)CCN(CC(=O)O)CCN(CC(=O)O)CC1)C(=O)O)C(=O)O (stereo not shown) [177Lu-L1, metal not drawn]
- Tumor-to-blood AUC0-192h ratio [1]: ~ 867
- Tumor-to-kidney AUC0-192h ratio [1]: ~ 8
- Bladder uptake (24 h (A)): 0.02±0.02 % ID/g
- Bone uptake (24 h (A)): 0.03±0.00 % ID/g
- Fat uptake (24 h (A)): 0.03±0.03 % ID/g
- Kidney uptake (24 h (A)): 0.32±0.16 % ID/g
- Lacrimal uptake (24 h (A)): 0.08±0.05 % ID/g
- Liver uptake (24 h (A)): 0.02±0.01 % ID/g
- Lung uptake (24 h (A)): 0.02±0.02 % ID/g
- PC3 flu tumor uptake (24 h (A)): 0.01±0.01 % ID/g
- PSMA+ PC3 PIP tumor uptake (24 h (A)): 12.86 ± 0.98 % ID/g
- Salivary gland uptake (24 h (A)): 0.01±0.01 % ID/g
- Small intestine uptake (24 h (A)): 0.01±0.00 % ID/g
- Spleen uptake (24 h (A)): 0.03±0.02 % ID/g
- Stomach uptake (24 h (A)): 0.01±0.00 % ID/g
- Blood uptake (24 h (A), same experiment as 177Lu-Alb-L2 and 177Lu-Alb-L5): 0.01 ±0.01 % ID/g
- Tumor-to-kidney ratio (24 h, biodistribution data from ref 27): > 4
- Kidney uptake [2]: 0.01 ± 0.00 %ID/g
- PSMA+ PC3 PIP tumor uptake [2]: 4.21 ± 1.45 %ID/g
- Tumor-to-blood ratio (all time points, biodistribution data from ref 27): > 300
